One compound from US9434764B2, “Skin care compositions and methods comprising selective agonists of melanocortin 1 receptor” (University of Cincinnati, priority 2012, dated 2016) can be followed below.

By UniProt entry, the sequences of proteins in these tests, tags left out.
UniProt P32245, whole entry: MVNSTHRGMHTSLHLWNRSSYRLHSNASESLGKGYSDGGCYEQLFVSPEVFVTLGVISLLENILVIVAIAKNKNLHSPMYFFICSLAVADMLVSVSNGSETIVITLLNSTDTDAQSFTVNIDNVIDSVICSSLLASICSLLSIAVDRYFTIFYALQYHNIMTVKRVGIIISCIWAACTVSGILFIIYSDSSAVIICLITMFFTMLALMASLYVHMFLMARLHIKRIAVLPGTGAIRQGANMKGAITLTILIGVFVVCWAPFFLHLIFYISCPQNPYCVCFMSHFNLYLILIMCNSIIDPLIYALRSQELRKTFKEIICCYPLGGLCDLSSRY

For the assay, the target named is T1, hMC4R (Homo sapiens, UniProt P32245).
T1 construct: expressed in transfected cells
The experiment in a line: cAMP stimulation in heterologous cells expressing human MC4R. Format: cell-based. Here is the method:
Receptor selectivity of peptide agonists for hMC1R was determined by stimulation of cAMP in heterologous cells expressing different human melanocortin receptors (MC1R, MC3R, MC4R, and MC5R).

Take `NC(=O)[C@H](Cc1c[nH]c2ccccc12)NC(=O)[C@H](CCCN=C(N)N)NC(=O)[C@@H](Cc1ccccc1)NC(=O)[C@H](Cc1cnc[nH]1)NC(=O)CCCc1ccccc1` [LK-184, Ph(CH2)3CO-His-(D-Phe)-Arg-Trp-NH2]: the response was half-maximal at 1.69 nM (EC50).
